The numbers were not newly measured in PMC10528545, which cites them from elsewhere.

The chains behind the UniProt entries cited, without tags or fusion partners. Residues count along the entry.
UniProt P12956, 2-609, chain 1 of 2: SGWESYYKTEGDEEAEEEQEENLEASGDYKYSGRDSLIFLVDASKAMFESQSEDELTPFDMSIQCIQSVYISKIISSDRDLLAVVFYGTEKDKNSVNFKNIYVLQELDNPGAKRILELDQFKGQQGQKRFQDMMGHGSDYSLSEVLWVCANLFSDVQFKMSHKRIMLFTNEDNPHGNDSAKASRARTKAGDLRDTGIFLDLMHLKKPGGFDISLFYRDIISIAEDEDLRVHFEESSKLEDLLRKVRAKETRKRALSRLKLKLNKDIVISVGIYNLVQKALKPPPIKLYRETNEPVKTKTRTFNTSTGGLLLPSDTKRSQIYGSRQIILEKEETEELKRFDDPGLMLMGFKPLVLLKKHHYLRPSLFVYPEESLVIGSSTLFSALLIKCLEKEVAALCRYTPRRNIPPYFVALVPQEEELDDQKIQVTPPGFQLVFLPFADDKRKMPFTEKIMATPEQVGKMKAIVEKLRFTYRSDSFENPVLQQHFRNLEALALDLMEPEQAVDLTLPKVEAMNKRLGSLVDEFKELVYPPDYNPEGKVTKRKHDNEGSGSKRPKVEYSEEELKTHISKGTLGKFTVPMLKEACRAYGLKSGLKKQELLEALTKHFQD
UniProt P78527, whole entry: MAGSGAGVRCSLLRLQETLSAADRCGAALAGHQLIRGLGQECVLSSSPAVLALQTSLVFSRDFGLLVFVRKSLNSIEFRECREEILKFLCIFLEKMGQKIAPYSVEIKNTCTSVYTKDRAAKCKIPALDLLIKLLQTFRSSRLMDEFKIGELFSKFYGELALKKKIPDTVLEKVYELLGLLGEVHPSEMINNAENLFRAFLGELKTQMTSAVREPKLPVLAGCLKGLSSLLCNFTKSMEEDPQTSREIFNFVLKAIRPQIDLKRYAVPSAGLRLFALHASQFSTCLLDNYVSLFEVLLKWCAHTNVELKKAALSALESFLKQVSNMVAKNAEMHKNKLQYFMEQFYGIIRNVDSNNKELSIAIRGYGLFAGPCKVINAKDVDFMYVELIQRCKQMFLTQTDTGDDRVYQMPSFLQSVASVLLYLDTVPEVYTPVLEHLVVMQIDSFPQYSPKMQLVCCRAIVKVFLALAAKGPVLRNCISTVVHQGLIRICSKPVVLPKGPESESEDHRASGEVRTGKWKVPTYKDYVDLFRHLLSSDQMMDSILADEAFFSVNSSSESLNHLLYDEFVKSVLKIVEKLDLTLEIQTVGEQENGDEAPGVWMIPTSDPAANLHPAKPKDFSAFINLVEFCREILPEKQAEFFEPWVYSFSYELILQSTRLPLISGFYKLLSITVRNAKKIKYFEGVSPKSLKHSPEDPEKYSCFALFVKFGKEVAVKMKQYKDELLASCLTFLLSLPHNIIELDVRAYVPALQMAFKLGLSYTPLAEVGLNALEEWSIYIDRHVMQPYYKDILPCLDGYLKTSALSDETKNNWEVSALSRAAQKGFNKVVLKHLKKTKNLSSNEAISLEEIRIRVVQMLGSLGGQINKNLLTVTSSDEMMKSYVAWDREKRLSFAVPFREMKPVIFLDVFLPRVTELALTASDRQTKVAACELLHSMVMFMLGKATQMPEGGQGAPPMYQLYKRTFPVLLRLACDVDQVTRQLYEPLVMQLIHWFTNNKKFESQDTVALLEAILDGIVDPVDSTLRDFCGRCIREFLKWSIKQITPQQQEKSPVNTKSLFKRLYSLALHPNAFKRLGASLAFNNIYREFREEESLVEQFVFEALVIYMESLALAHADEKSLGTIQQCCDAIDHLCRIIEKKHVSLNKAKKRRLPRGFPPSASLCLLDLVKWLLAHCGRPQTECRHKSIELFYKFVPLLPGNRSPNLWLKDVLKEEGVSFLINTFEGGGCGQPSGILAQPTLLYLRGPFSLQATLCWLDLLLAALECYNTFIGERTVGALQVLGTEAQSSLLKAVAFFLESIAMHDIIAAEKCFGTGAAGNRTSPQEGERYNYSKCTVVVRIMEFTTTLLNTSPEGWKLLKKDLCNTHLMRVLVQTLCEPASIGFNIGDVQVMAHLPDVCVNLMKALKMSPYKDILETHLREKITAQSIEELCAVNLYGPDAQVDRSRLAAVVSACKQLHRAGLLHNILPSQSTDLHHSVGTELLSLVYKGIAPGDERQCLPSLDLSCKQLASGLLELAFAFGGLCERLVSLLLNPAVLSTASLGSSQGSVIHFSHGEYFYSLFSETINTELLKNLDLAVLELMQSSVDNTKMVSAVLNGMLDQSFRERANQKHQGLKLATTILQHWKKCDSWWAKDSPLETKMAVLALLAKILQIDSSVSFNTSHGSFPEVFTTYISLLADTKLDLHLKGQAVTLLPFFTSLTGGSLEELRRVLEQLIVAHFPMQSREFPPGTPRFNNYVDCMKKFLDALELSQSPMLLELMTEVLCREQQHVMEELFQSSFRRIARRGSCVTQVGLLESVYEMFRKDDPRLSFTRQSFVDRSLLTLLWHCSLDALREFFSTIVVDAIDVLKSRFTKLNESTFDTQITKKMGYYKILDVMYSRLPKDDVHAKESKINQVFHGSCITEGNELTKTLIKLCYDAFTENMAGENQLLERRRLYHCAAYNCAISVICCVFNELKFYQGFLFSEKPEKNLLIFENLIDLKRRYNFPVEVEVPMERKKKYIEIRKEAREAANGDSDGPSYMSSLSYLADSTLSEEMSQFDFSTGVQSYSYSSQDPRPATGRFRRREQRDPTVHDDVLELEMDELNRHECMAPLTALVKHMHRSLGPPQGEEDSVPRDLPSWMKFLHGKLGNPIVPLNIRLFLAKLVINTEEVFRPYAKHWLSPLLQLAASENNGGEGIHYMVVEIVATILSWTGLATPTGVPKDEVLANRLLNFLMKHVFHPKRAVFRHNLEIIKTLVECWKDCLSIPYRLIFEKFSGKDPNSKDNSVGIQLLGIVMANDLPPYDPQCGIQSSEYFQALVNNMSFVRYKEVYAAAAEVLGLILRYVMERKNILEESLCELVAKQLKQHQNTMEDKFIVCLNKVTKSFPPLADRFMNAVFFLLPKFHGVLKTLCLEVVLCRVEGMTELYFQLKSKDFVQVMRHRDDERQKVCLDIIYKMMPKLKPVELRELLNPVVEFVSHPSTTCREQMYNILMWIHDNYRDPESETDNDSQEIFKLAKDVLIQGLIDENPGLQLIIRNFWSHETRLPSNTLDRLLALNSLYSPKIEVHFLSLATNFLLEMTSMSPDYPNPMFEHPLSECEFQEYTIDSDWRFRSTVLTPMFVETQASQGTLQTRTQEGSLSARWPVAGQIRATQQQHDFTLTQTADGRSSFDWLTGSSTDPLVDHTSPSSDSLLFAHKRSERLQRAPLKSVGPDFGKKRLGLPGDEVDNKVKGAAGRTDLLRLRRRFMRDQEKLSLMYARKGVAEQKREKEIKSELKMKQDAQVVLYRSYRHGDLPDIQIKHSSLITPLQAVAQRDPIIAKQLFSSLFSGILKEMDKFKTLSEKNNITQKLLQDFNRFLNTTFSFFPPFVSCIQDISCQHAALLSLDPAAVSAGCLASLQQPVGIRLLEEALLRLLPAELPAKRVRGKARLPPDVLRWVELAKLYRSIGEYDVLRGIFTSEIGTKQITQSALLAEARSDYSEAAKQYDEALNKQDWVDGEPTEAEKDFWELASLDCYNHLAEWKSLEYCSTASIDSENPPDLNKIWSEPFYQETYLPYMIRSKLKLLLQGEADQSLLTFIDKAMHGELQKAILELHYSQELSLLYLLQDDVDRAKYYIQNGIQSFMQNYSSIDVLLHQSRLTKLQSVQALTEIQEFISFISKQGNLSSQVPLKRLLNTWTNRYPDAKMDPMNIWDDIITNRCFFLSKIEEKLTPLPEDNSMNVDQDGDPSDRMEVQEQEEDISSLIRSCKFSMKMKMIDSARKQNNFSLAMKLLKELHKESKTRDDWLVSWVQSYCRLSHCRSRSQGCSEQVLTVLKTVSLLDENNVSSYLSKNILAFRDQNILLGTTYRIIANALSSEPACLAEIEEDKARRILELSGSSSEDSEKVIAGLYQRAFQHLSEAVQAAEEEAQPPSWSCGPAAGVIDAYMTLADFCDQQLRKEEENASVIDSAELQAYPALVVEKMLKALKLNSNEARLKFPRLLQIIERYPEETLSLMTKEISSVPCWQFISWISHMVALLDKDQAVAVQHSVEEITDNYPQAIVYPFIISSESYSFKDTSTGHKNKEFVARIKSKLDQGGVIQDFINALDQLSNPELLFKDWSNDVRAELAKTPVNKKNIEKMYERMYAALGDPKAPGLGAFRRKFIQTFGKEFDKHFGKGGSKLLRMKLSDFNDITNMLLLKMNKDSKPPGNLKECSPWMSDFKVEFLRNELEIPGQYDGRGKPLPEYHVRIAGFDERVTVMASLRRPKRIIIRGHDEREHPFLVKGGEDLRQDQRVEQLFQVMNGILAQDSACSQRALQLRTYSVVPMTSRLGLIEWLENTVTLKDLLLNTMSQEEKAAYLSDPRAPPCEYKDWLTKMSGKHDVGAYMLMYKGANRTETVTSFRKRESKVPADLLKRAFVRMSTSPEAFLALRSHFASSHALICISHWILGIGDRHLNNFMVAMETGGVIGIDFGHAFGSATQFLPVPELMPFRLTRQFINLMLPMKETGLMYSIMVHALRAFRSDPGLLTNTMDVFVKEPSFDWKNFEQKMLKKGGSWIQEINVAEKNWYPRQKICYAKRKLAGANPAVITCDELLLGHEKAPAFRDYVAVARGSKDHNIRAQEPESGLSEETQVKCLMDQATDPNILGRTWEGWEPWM

The target of the data set is Ku (Homo sapiens) (UniProt P12956).

Regarding DNA-PKcs (from UniProt P78527), the Kd is 0.035 nM.
